scFv variants of Ab-14 (light chain) against a SARS-CoV-2 spike peptide

Reference: Li et al. 2023, doi:10.1038/s41467-023-39022-2. File: FLAb, binding data.

Target peptide (SARS-CoV-2 spike, HR2 region): PDVDLGDISGINAS

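The starting antibody came from a phage panning campaign against this peptide. Designed CDR sequences, proposed from the first random library and measured here. Group labels follow the data file (Ctrl: baseline library sampled from a position-specific scoring matrix, with some repeated check sequences; Rand: our label for a block that the file lists under HC and that is probably the random mutants of the ten best first-round binders; GP: Gaussian process model; GPLM: also part of the Gaussian process libraries; HC: hill climbing; Gen: genetic algorithm; Gibbs: Gibbs sampling; a sequence that several methods proposed may carry one label only). The scFvs were displayed on barcoded MATa yeast, the peptide on MATalpha yeast. The frequency of each diploid, read from paired DNA barcodes, reflects how well the two displayed proteins bind. Each replicate has its own calibration line, from reference interactions of the BCL2 family. The assay was run in six technical replicates.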

Parent scFv Ab-14: VH joined to VL by the linker GGGGSGGGGSGGGGS. Changes lie in the light chain CDRs alone.
VH: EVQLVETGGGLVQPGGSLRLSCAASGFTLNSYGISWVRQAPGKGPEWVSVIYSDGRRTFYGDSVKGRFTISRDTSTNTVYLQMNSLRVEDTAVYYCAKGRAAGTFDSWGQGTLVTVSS
VL: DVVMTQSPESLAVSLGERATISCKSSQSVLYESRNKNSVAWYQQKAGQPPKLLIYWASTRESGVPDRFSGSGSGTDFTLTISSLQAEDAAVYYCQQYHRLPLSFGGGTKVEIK

The parent's light chain CDRs are KSSQSVLYESRNKNSVA, WASTRES, QQYHRLPLS; each variant's own CDRs replace them letter for letter.
Variants here have at most six changes.
Each Kd is an estimate from the mating assay, the geometric mean of the replicates in which the pair was seen; lower is stronger.
A pair that was not seen in any replicate is written "not detected"; this usually means weak binding, but a binder can also be missed.
As a blank, each scFv also met three strains without target: over all light chain designs, 4% of these pairings were detected, typically at 430 nM and seldom below 38 nM.

| CDR-L1 | CDR-L2 | CDR-L3 | group | Kd (apparent) | detected |
|---|---|---|---|---|---|
| KSSQSWEYESRNKNSVA | GGSTRES | QAYHRLPLS | Ctrl | 2.6 nM | 6 of 6 |
| KFSDSVLLESRMKNSVA | NASTRES | QQYHRLPLS | GP_HC | 800 pM | 6 of 6 |
| KSSDSVLYESRNKNSVA | GASTRES | QQYHRLPLS | GP_HC | 8.7 nM | 6 of 6 |
| KSSQSWRDESRNKNSVA | WASTHSL | QQYHRLPLS | Ctrl | not detected | 0 of 6 |
| KLSQSELYESRNKNSVA | EASQRES | QDYHRLPLS | GP_Gen | 780 pM | 6 of 6 |
| KSSQSVYYESRNKNNVA | WASTREY | QQYHRLPLS | Ctrl | not detected | 0 of 6 |
| KSSQSELIESRNKNSVA | DASTRES | QQYHRLPLS | GP_HC | 560 pM | 6 of 6 |
| KISQSLLYESRNKNNVA | WASTRES | QQYHRMPLS | Ctrl | 970 pM | 6 of 6 |
| KVSQSVLYEERNKNSVA | HASTRES | QQYHRLPLS | GP_Gen | 990 pM | 6 of 6 |
| KSSPSGLYESRNKNSVA | EASTRES | QQYHRLPLS | GP_HC | 880 pM | 6 of 6 |
| KESQSWTYESRNKNSVA | GASTRES | QQYHRLPLS | GP_HC | 7.9 nM | 6 of 6 |
| KLSQSDLYESRNKNSVA | EASQREQ | QQYHRLPLS | GP_Gen | 960 pM | 6 of 6 |
| KFSQSVLYESRQKNSVA | NASQRES | QQYHRLPLS | GP_Gen | 1.5 nM | 6 of 6 |
| KLSQSYLYESRNKNSVA | NASTRED | QQYHRLPLS | GP_Gen | 520 pM | 6 of 6 |
| KSSQSVVYDSRNKNSVA | QASTRES | QQDHRLPIS | Ctrl | 7.5 nM | 6 of 6 |
| KVSQEKLYESRNKNSVA | DASTRES | QQYHRLPLS | GP_HC | 480 pM | 6 of 6 |
| KLSQSYLYESRNKNSVA | QASTRES | QQYHRLPLS | GP_Gen | 540 pM | 6 of 6 |
| KISQSVLYESRNKNSVA | WASVRES | QQYIRLPLS | Ctrl | 2.0 nM | 6 of 6 |
| KFPQSVGYQSRNKNSVA | DASTRLS | QQYHRLPLS | GP_Gibbs | 350 pM | 6 of 6 |
| KSSQSWLYESRNFKSVA | NASTRES | QQYHRLPLS | GP_HC | 1.6 nM | 6 of 6 |
| KSSGSVLYESRNKNSVA | GASTRES | QQYMRLPLS | Ctrl | 900 pM | 6 of 6 |
| KLQQSQLYESRNKNSVA | NASLRES | QQYHRLPLS | GP_Gen | 530 pM | 6 of 6 |
| KSMQSWLYESRNKNSVA | GASTRES | QQYHRLPLS | Rand | 710 pM | 6 of 6 |
| KFSQSYLYESRNKNSVA | DASTRES | QQYHRLPLS | GP_Gen | 280 pM | 6 of 6 |
| KMSQSVYYESRNKNSVA | EASTRES | QQYHRLPLN | Ctrl | 13 nM | 6 of 6 |
| KVSQSELYESRNKNSVA | QASQRES | QQYHRLPLS | GP_Gen | 740 pM | 6 of 6 |
| HQSESVLYESRNKNSVA | NGSTREV | QQYHRLPLS | GP_HC | 1.0 nM | 6 of 6 |
| KSQQSWLYESRNFNSVA | HASTRED | QQYHRLPLS | GP_HC | 1.6 nM | 6 of 6 |
| KVSQSELYEERNKNSVA | NASQRES | QQYHRLPLS | GP_Gen | 1.3 nM | 6 of 6 |
| KSSQSVLYESLNKNSVA | GASTRES | QQYHRLPLS | Ctrl | 1.6 nM | 6 of 6 |
| KSSQSVLYESRNHNSVA | WDSTRES | QQYHRLPLS | Ctrl | 7.4 µM | 1 of 6 |
| KSSQSVLYEERNKNSVA | QASTRES | QQYHHLPLS | Ctrl | 1.7 nM | 6 of 6 |
| KSSASGLYESRNKNSVA | EASTRES | QQYHRLPLS | GP_HC | 1.1 nM | 6 of 6 |
| KSLQSWWYESRNKNSVA | HASTREQ | QQYHRLPLS | GP_HC | 20 nM | 6 of 6 |
| KLSYSVGGESRNKNSVA | DAGTRES | QQYHRLPLS | GP_Gibbs | 1.5 nM | 6 of 6 |
| KLSQSNGYESRNKNSVA | NASQRES | QQYHRLPLS | GP_Gen | 890 pM | 6 of 6 |
| KISQSVLYESRNKNSVA | DASTRES | QQYHRLPLD | GP_HC | 730 pM | 6 of 6 |
| KSSQSVLYESRNMNSVA | WASTRES | QQYHRLWLS | Ctrl | not detected | 0 of 6 |
| KSSQSVLYESLNKNSIA | WASTRES | QQYHWLPLS | Ctrl | 820 nM | 5 of 6 |
| KLSQLVLYESRNKNSVA | NASTRLS | QQYHRLPLS | GP_Gen | 1.2 nM | 6 of 6 |
| KSSQSVLYESRNKNSVA | RASTRPS | QQYHRLPLS | Ctrl | 42 nM | 4 of 6 |
| KESQSWLYESRNKNSVA | NASTRES | QQYHRLPLS | GP_HC | 3.8 nM | 6 of 6 |
| KSSQSVLYESRNKNSVA | WCSTRES | QQYHRLPLS | Ctrl | 36 nM | 1 of 6 |
| KLSQSWLYESRNKNSVA | GASQRES | QQYHRLPLS | GP_Gen | 530 pM | 6 of 6 |
| KLSWSVVYESRNKNSVA | GASTRES | QTYHRLPLS | Ctrl | 1.1 nM | 6 of 6 |
| KSPQSWLYESRNKNSVA | HASTRED | QSYHRLPLS | GP_HC | 4.3 nM | 6 of 6 |
| KSSQSVLYESRNKNSVA | WATTREV | QQYHRLPLS | Ctrl | 29 nM | 15 of 30 |
| KMSQSVLGEQRNKNSVA | WASTRES | QQYHRLPLS | Ctrl | 3.6 nM | 6 of 6 |
| KSSQSVLNESRNKNSVA | WASTRES | YSYHRLPLS | Ctrl | 98 nM | 1 of 6 |
| KSSQSVLYMERNSNSVA | GASTRES | QQYHRLPLS | Ctrl | 1.7 nM | 6 of 6 |
| HSSPSGLYESRNKNSVA | NASTRES | QQYHRLPFS | GP_HC | 2.2 nM | 6 of 6 |
| KSSQSVLYESRNKNSVA | WVSTRES | QQYHRLPLS | Ctrl | 110 nM | 3 of 6 |
| KLQQSWEYESRNKNSVA | NASQRES | QQYHRLPLS | GP_Gen | 440 pM | 6 of 6 |
| KSSQSVLTESSNKNSVA | WASTRES | QQYHRLPFS | Ctrl | 18 nM | 6 of 6 |
| KMSQSVLYESRNKNSVA | TASTRES | QQYHRAPLS | Ctrl | not detected | 0 of 6 |
| KLSQSVLYESRNKNSVA | QASTREM | QQYHRLPLS | GP_Gen | 970 pM | 6 of 6 |
| KLSQSVLYESRNKNSVA | NASQREA | QQYHRLPLS | GP_Gen | 530 pM | 6 of 6 |
| KLEQSVLYESRNKNAVA | NASTRES | QQYHRLPLS | GP_Gen | 740 pM | 6 of 6 |
| KLHQSVLYESRNKNSVA | GASTRES | QQYHRLPLS | GP_Gen | 550 pM | 6 of 6 |
| KYSQSVLYESRNKNSVA | DASTRES | QQYHRLPLS | GPLM_HC | 610 pM | 6 of 6 |
| KVSQSYLLESRNKNSVA | EASTRES | QQYHRLPLS | GP_HC | 410 pM | 6 of 6 |

Where one sequence has several entries in the source, the replicates are pooled.
Values of this round are not directly comparable with the first-round values of the same sequences.
In the paper, a design with two or fewer of six values counts as a poor binder.
The parent sequence was in this pool as ten entries: three were never detected, three once, and four in most replicates, with averages from 2.2 nM to 240 nM.